The assay has as its target recombinant human CDK1/Cyclin B complex (Homo sapiens, UniProt P06493). Description: CDK1/Cyclin B kinase assay (FlashPlate or HTRF). Conditions: Rb protein substrate, Ki=IC50/(1+[S]/Km). As to the method: To determine inhibition of CDK1 activity, either FlashPlate™ (NEN™-Life Science Products) assay or HTRF Homogeneous Time Resolved Fluorescence assay was performed. Both types of kinase assays were carried out using recombinant human CDK1/Cyclin B complex. GST-cyclinB (GST-cycB) and CDK1 cDNA clones in baculovirus vectors were provided by Dr. W. Harper at the Baylor College of Medicine, Houston, Tex. Proteins were co-expressed in High Five™ insect cells and the complex was purified on glutathione Sepharose resin (Pharmacia, Piscataway, N.J.) as previously described (Harper, J. W. et al. Cell 1993, 75, 805-816). […] Purified Rb fusion protein stocks were quantitated for protein concentration, aliquoted, and stored at −70° C.
For the FlashPlate kinase asasy, 96-well FlashPlates were coated with Rb protein at 10 μg/ml, using 100 μl per well. […] Plates were washed four times with the wash buffer, sealed, and counted on the TopCount scintillation counter (Packard Instrument Co., Downers Grove, Ill.]. The percent inhibition of Rb phosphorylation, which is a measure of the inhibition of CDK activity, was determined according to the following formula: […]
The Homogeneous Time Resolved Fluorescence (HTRF) kinase assay was carried out in 96-well polypropylene plates (BD Biosciences, Bedford, Mass.). […]

By UniProt entry, the sequences of proteins in these tests, tags left out.
UniProt P06493, whole entry: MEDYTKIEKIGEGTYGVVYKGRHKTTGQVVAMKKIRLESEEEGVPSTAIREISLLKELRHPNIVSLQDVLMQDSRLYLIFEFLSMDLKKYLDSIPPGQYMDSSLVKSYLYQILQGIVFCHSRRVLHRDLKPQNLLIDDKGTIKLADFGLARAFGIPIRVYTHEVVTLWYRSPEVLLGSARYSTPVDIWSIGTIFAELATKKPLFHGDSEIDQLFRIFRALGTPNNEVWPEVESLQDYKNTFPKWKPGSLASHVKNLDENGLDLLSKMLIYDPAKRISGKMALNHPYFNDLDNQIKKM
UniProt P14635, whole entry partner: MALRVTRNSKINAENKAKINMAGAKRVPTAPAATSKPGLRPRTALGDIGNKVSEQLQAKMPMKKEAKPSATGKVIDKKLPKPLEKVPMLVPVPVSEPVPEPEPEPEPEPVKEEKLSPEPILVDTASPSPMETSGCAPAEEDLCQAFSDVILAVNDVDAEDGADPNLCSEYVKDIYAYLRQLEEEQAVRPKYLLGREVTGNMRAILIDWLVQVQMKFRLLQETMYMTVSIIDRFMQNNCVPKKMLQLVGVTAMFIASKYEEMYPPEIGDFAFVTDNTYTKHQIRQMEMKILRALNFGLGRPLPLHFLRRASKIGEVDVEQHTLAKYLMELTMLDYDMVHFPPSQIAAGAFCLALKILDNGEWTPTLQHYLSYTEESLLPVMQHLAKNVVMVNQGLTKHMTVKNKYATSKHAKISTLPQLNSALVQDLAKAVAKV

Each structure is given as a SMILES string.

`O=C1N=C(NCCc2ccccn2)S/C1=C\c1ccc2ncccc2c1`: the Ki came out at 798 nM.

Broadly, the Ki is the equilibrium dissociation constant of an inhibitor or competing ligand from its target.
